# AlphaSeq binding of Ab-14 light chain variants to a spike HR2 peptide

From the AlphaSeq antibody data of Li et al. 2023 (doi:10.1038/s41467-023-39022-2), copy in the FLAb collection.

All variants were tested on one target, the spike HR2 peptide PDVDLGDISGINAS (SARS-CoV-2).

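The starting antibody came from a phage panning campaign against this peptide. These sequences belong to a second round, designed from the earlier measurements on random variants of the parent. Their group label is 14L_En_HC (En: ensemble of fine-tuned language models; HC: hill climbing; a sequence that several methods proposed may carry one label only). Affinity was read by AlphaSeq, a pooled yeast mating assay with surface-displayed partners. Binding brings cells together so that they mate, and sequencing counts the barcode pairs among the diploids. Read counts were normalised to the haploid input and turned into Kd by a linear fit to BCL2-family pairs of known affinity, for each replicate. The assay was run in six technical replicates.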

The variants keep the heavy chain, the linker and the frameworks of Ab-14 (scFv order VH, a 15-residue (Gly4Ser)3 linker, VL).
VH: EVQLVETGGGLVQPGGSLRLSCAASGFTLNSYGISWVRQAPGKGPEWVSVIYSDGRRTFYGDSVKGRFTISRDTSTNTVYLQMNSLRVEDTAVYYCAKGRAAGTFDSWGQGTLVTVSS
VL: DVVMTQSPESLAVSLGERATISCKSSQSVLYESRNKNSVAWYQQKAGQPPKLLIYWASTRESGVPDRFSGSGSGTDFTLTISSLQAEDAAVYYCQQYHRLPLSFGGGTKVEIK

Each variant is given by its three light chain CDRs, as the data file delimits them; those of the parent are KSSQSVLYESRNKNSVA, WASTRES, QQYHRLPLS. Scale: log10 of Kd in nM, estimated from mating counts; low values are strong binders. Averages over replicates are reported, and they cover detected replicates only. "ND" means that the variant was in the library but no mating with the target was seen in that replicate; the authors take this as a sign of poor binding, and no number exists. Values of this round are not directly comparable with the first-round values of the same sequences.

CDR-L1 | CDR-L2 | CDR-L3 | log10 Kd, replicates | mean log10 Kd (nM) | control signals
KISGLQRFQQNAKNNIA | EMNRREE | QQYHRLPLS | 0.03 / -0.06 / -0.11 / -0.13 / -0.08 / 0.10 | -0.04 | 1/18 (2.99)
MISDMGLHDSRMQNSVA | NNSTREA | QQYHRLPLS | 1.55 / 1.07 / 1.05 / 1.16 / 1.83 / 1.55 | 1.37 | 1/18 (3.82)
MFSQSVMYGSFYRNSVA | QTSTREP | QQYDRLPLS | 0.72 / 0.73 / 0.97 / 0.78 / 0.61 / 0.91 | 0.79 | 1/18 (3.39)
MIAAGLKGVGRNKNSVA | NAQTRES | QHYHRLPLS | ND / 2.64 / ND / 4.42 / ND / 3.16 | 3.41 | 0/18
KVGQMTAIESRNLNSVA | QMDTRES | QQYDRLPLS | 1.07 / 1.06 / 1.02 / 0.95 / 0.78 / 1.63 | 1.09 | 1/18 (2.29)
ALSQSMDMTSRNVNSVA | DLSTREN | QQYHRLPLS | 0.12 / 0.01 / -0.10 / -0.36 / -0.45 / 0.24 | -0.09 | 1/18 (3.42)
IISQVDDYLMRNTNSIA | DQTTRGS | QQYDRLPLS | 1.30 / 0.94 / 0.95 / 1.58 / 1.02 / 0.94 | 1.12 | 1/18 (1.63)
KLGGVTSYEMMNKNSVA | QMTTRES | QQYHRLPLS | 0.18 / -0.05 / -0.06 / -0.01 / -0.17 / 0.00 | -0.02 | 0/18
HMSQVTMYGYWYKNSVA | QTSTREE | QQYDRLPLS | 1.38 / 1.51 / 1.64 / 1.68 / 1.95 / 2.08 | 1.71 | 0/18
SFGQTVMYESTMRNNVA | QTSTRES | QQYDRLPLS | 0.18 / 0.48 / -0.02 / 0.04 / -0.03 / -0.06 | 0.10 | 0/18
KFSQMVLTGMYVSNSVA | QMSTRVN | QQYHRLPLM | 1.17 / 1.16 / 0.66 / 0.60 / 1.04 / 0.95 | 0.93 | 1/18 (3.99)
MFSQSVMYGSRYRNSVA | QTSTRES | QQYDRLPLS | 0.74 / 0.34 / 0.48 / 0.66 / 0.46 / 0.51 | 0.53 | 2/18 (3.52)
KISMLYNYESTNKNSIA | EMTTRPA | QHYHRLPLS | ND / 1.88 / ND / 1.43 / 2.62 / ND | 1.98 | 1/18 (2.34)
HISQMVMYGTCNKNNVA | QVSLREE | QQYHRLPLS | 2.18 / 2.41 / 1.63 / 1.41 / 1.33 / 1.12 | 1.68 | 1/18 (1.88)
TLTQVQGMQSHNKNSVA | DLSTRGS | QQYHRLPLS | 0.76 / 0.85 / 0.31 / 0.48 / 0.51 / 0.75 | 0.61 | 3/18 (2.89)
KLYASTMLEMHDKNSIA | DLSTRGN | QQYHRLPLS | 0.73 / 0.12 / -0.04 / 0.50 / 1.18 / 0.20 | 0.45 | 0/18
NFSQMVLTGSTLKNSVA | HAETREE | QQYHRLPLI | 0.85 / 0.69 / 0.74 / 0.59 / 1.00 / 0.69 | 0.76 | 0/18
MLLQATMYGERNRNSVA | HASTRED | QYYHRLPLI | 2.65 / 2.24 / 1.92 / 1.66 / 3.39 / 3.26 | 2.52 | 0/18
SLAESVHMESRNKNSVA | DNSTRES | QHYHRLPLS | 2.25 / ND / ND / ND / ND / ND | 2.25 | 1/18 (2.72)
KLREVQHVESKQKNNVA | DNSTREY | QDYYRLPLS | 1.86 / 1.49 / 1.22 / 2.01 / 1.34 / 1.93 | 1.64 | 2/18 (2.76)
SIYDATGMESRNKNPIA | DVSTRPQ | QQYHRLPLS | 0.31 / -0.06 / 0.03 / -0.15 / 0.04 / 0.07 | 0.04 | 1/18 (2.17)
MISDTGQHDSRMKNSVA | NNSTRES | QQYHRLPLS | 2.23 / ND / 3.02 / 2.36 / 2.25 / 2.55 | 2.48 | 2/18 (2.28)
KITGMWTFEQHNRNNIA | EESTRED | QSYHRLPLS | 1.00 / 0.94 / 1.15 / 0.75 / 0.81 / 0.67 | 0.89 | 0/18
HISQSFMTESVSRNSVA | HQSTREQ | QQYDRLPLS | 0.85 / 0.63 / 0.63 / 0.41 / 0.53 / 0.72 | 0.63 | 5/18 (3.06)
KISQAVNYLSRVMNSVA | DNSTRGS | QQYFRLPLS | 1.04 / 0.77 / 0.63 / 0.08 / 0.56 / 0.51 | 0.60 | 2/18 (2.36)
KLRQSTHIESFNKNNVA | EMTTREV | QSYDRLPLS | 0.97 / 0.73 / 0.39 / 0.73 / 0.69 / 0.74 | 0.71 | 0/18
KLGSMVLLEHGNRNSIA | QQSTREE | QQYDRLPLS | 1.10 / -0.37 / 0.03 / 0.26 / 0.19 / 0.80 | 0.33 | 2/18 (2.16)
HLSDTVMQGLYYRNSVA | QESTRAD | QQYHHLPLS | 0.77 / 0.69 / 0.46 / 0.30 / 0.66 / 0.74 | 0.60 | 2/18 (2.78)
KLSQVTHSELRNKNSIA | EMVTREV | QQYDRLPLS | 0.80 / 0.60 / 0.95 / 0.94 / 0.48 / 0.82 | 0.77 | 0/18
KIMQSLNYEQFNVSNVA | GQETREK | QSYHRLPLS | ND / ND / ND / 1.62 / 1.93 / ND | 1.77 | 0/18
TISQSVLMTGLNRNSVA | QATERIE | QQYHRLPLS | 0.55 / 0.14 / 0.07 / 0.25 / -0.04 / 0.23 | 0.20 | 1/18 (2.65)
IISGSMLMESRNKKSVA | NAETREY | QHYDRLPLS | 1.87 / 1.29 / 0.88 / 1.04 / 0.84 / ND | 1.18 | 0/18
KLRQSTAYLMENKNSVA | ELSTRGS | QQYFRLPLS | 0.35 / 0.79 / 0.19 / 0.30 / 0.35 / 0.18 | 0.36 | 2/18 (2.59)
KLSDVTEYESRNKNNVA | DLTTRGS | QDYHRLPLS | -0.53 / -0.57 / -0.61 / -0.74 / -0.79 / -0.63 | -0.64 | 0/18
TISGLIMMPSRNKNSVA | NTSTRYS | QQYHRLPLS | 1.00 / 0.95 / 0.78 / 0.74 / 0.66 / 1.02 | 0.86 | 1/18 (2.88)
KISMLYNYEQTNKNSIA | EMTTRES | QHYHRLPLS | 1.98 / 1.79 / 1.58 / 1.73 / 1.43 / 1.38 | 1.65 | 0/18
KLSQYVGGESRNKSSLA | DNSTRES | QQYQRLPLS | 2.02 / 1.92 / 1.70 / 1.96 / 1.84 / 1.75 | 1.86 | 2/18 (2.99)
KIGMVTNGISRNKNSVA | EQSTRES | QQYNRLPLS | 0.52 / 0.41 / 0.59 / 0.45 / 0.33 / 0.23 | 0.42 | 1/18 (2.48)
KLYFNVGTMSHNKQNIA | DMERRED | QQYHRLPLS | 0.25 / -0.01 / -0.23 / -0.21 / -0.19 / -0.06 | -0.08 | 1/18 (2.46)
SIYDATGMEARNKNPIA | DVSTRPS | QQYDRLPLS | 0.41 / 0.54 / 0.23 / 0.02 / 0.22 / 0.39 | 0.30 | 1/18 (2.63)
MISDLTMLGSRNKNSVA | DLSTRGS | QQYHRLPLS | 0.24 / 0.39 / 0.24 / 0.03 / 0.22 / 0.20 | 0.22 | 1/18 (2.23)
NVGQSMDGESRNRNSVA | HQSTRED | QHYHRLPLS | 1.24 / 0.61 / 0.85 / 0.60 / 1.31 / 1.19 | 0.97 | 0/18
IISQVDDYLSRNKNSIA | DQSTRGS | QQYDRLPLS | 0.81 / 0.37 / 0.49 / 0.72 / 0.37 / 0.56 | 0.55 | 1/18 (2.13)
KLLQEVTGHSRNRNSVA | HNSTRED | QQYDRLPLT | ND / ND / ND / ND / ND / ND | ND | 0/18
MAYGGDMLESVTRNSVA | NAETRAD | QDYHRLPLS | ND / ND / ND / ND / ND / ND | ND | 0/18
TISMSMNWLTRNKNSIA | EESTRQD | QQYDRLPLS | 1.52 / 1.67 / 1.80 / 1.92 / 1.62 / 2.35 | 1.81 | 1/18 (1.92)
KLSQLFYKESMNKNNVA | EMTTRGS | QQYDRLPLS | ND / ND / ND / ND / ND / ND | ND | 0/18
LISGVWDYGSRNYNSVA | QTSTREN | QQYDRLPLS | 1.39 / 0.97 / 1.08 / 1.22 / 1.14 / 0.89 | 1.11 | 0/18
MISDLTMYGSRNMNSVA | DLSTRGS | QQYHRLPLS | 0.34 / 0.20 / -0.02 / -0.04 / 0.09 / 0.28 | 0.14 | 0/18
MLSDTVMQGSYSRNSVA | QEQTRAE | QQYHHLPLS | 0.60 / 0.57 / 0.57 / 0.65 / 0.80 / 0.90 | 0.68 | 0/18

The first 3 variants above that were never detected:

| CDR-L1 | CDR-L2 | CDR-L3 | log10 Kd, replicates | mean log10 Kd (nM) | control signals |
|---|---|---|---|---|---|
| KLLQEVTGHSRNRNSVA | HNSTRED | QQYDRLPLT | ND / ND / ND / ND / ND / ND | ND | 0/18 |
| MAYGGDMLESVTRNSVA | NAETRAD | QDYHRLPLS | ND / ND / ND / ND / ND / ND | ND | 0/18 |
| KLSQLFYKESMNKNNVA | EMTTRGS | QQYDRLPLS | ND / ND / ND / ND / ND / ND | ND | 0/18 |

In the paper, a design with two or fewer of six values counts as a poor binder. The parent sequence was in this pool as ten entries: three were never detected, three once, and four in most replicates, with averages from 0.34 to 2.37. As a blank, each scFv also met three strains without target: over all light chain designs, 4% of these pairings were detected, typically at 2.64 and seldom below 1.59. The control count says in how many pairings with the empty strains this scFv gave a signal, with their mean in brackets.